High-throughput results deposited in PubChem BioAssay by National Center for Advancing Translational Sciences (NCATS).
ERG Ets-DNA blk: qHTS for Small Molecule Inhibitors of the ERG Ets/DNA interaction; Potency, µM (top dose mostly 76.9 µM), without a hit: at the top dose FP activity, negative = inhibition, actives largely listed as inhibitors; Transcriptional regulator ERG (Homo sapiens), P11308; fluorescence polarization, His-ERG Ets domain / labelled DNA; 370,000 tested, 0.028% active; active = well fitted inhibition curve with a large enough effect in the polarisation, with a control signal flat; inconclusive = small, poorly fitted or top-dose-only effect, or effect the other way, or a change in a side signal; inactive = no such curve, though single readings can be large or run the other way; the % refers to the polarisation;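 also: polarization taken with two DNA probes labelled with fluorescein and Texas red; % of control where 0% means no effect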
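His-tagged ERG Ets domain (1 uM in the protein solution; 300mM KCl, 50mM Tris-HCl, 1mM EDTA, 1mM DTT, pH 7.5) received compound, then a probe mix of 5 nM fluorescein-DNA and 100nM Texas-615-DNA. Fluorescence polarization was read for both dyes.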
RGS4 inhibitor: Inhibitors of Regulator of G Protein Signaling (RGS) 4: qHTS | Regulator of G-protein signaling 4 (Homo sapiens), P49798 | Transcreener GDP fluorescence polarization, RGS4-accelerated GTP hydrolysis | Potency, µM (highest dose often 114 µM), for inactives: at the top dose activity change, negative = inhibition, hits mostly inhibitors | 390,000 tested, 0.039% active | AID 504845, 2011; active = well fitted inhibition curve with a large enough effect; inconclusive = small, poorly fitted or top-dose-only effect; inactive = no such curve, though single readings can be large or run the other way; also: % is scaled to controls: 0 for no effect and ±100 for the full control effect; nearly all actives have a fitted effect of over 75% in size
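MLSMR compounds (23 nl, pin-transferred) preincubated 10 min at room temperature with a 500nM (2x) first reagent, then RGS4 at 900nM (2x) plus Transcreener GDP mix added; fluorescence polarization (620/688 nm) read before and after 90 min at 30 °C.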
Rango dissoc inh: qHTS Assay for Inhibitors of RanGTP induced Rango (Ran-regulated importin-beta cargo) - Importin beta complex dissociation; Biochemical FRET Rango-importin beta, RanGTP-induced dissociation; 340,000 tested, 0.071% active; Potency, µM (highest dose often 46.1 µM), without a hit: at the top dose activity change, negative = inhibition; Snurportin-1 (Homo sapiens) + GTP-binding nuclear protein Ran (Homo sapiens) + Importin …; also: % of control where 0% means no effect; nearly all actives have a fitted effect of over 45% in size
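Recombinant Rango FRET biosensor (EYFP–snurportin 1 IBB–cerulean CFP10) at 0.1 uM premixed with 0.25 uM importin beta in PBS, 1 mM DTT, 0.02% Tween-20, 0.1% BSA. Compound added 5 min; RanGTP-RCC1 (0.6 uM Ran, 2 mM GTP, 0.2 uM RCC1) then triggers release, read at 45 min.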
Rango-impB inh: qHTS Assay for Inhibitors of Rango (Ran-regulated importin-beta cargo) - Importin beta complex formation | Importin subunit beta-1 (Homo sapiens), Q14974 | Rango CFP/YFP FRET sensor + importin beta, 45 min | Potency, µM (doses to about 92.2 µM), for the others: at the top dose inhibition of complex formation | 340,000 tested, 0.031% active | AID 540263, 2011;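 also: 0% = DMSO wells and 100% = buffer wells lacking importin beta; nearly all actives have a fitted effect of over 15% in size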
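FRET biosensor (snurportin 1 IBB flanked by EYFP and cerulean), 50 nM, with compound 5 min, then 0.125 microM importin beta in PBS, 1 mM DTT, 0.02% Tween-20, 0.1% BSA. CFP/YFP ratio read after 45 min at room temperature; pre-read flags interference.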
* hit, by the source's call; ? = inconclusive; / = not tested or not shown; [ ] = remark or other dose. Only some compounds are listed: those with a hit (about 0.14% of all), similar ones and a draw of the others. Unless noted, calls follow the shape of the full dose curve. Potency is read from the fitted curve at half-maximal effect.

Protein sequences, listed by entry. Tags and fused reporters are not part of them.
Importin subunit beta-1 (Homo sapiens), Q14974, UniProt Q14974, whole entry, looked up: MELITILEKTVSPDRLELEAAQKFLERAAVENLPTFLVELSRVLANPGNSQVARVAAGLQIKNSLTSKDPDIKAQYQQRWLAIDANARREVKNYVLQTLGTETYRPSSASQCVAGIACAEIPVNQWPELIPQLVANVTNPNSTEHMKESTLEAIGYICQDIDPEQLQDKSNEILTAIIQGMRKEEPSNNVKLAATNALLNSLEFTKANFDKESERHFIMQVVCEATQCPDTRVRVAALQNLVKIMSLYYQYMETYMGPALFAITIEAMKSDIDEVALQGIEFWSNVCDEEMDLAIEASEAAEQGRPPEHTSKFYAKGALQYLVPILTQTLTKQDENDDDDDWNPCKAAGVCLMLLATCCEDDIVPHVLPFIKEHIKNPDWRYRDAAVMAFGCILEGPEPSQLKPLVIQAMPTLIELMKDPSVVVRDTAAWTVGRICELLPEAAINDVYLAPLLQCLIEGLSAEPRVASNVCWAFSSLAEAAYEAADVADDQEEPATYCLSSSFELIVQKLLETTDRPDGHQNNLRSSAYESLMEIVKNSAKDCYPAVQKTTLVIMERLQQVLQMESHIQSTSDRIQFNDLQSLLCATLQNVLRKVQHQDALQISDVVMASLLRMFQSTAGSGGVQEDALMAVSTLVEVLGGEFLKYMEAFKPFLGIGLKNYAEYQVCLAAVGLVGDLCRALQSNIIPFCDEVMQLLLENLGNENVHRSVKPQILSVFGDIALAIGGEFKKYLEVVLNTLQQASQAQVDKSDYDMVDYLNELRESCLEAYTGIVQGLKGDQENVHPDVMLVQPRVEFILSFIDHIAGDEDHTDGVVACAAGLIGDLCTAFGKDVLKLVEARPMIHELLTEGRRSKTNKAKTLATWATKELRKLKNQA

Fields – ERG Ets-DNA blk	RGS4 inhibitor	Rango dissoc inh	Rango-impB inh
- COc1cccc(C2=CC(c3ccc(OC)c(OC)c3)NC(=S)N2)c1 (centres undefined)
    -5.6%	-15.9%	7.31µM*	?
- Cc1csc2c(=O)sc(NC(=O)c3ccc(F)cc3)nc12
    -7.6%	0.5%	-7.1%	-1.5%
- Cc1csc2nc(NC(=O)c3ccccc3)sc(=O)c12
    -3.9%	-20.3%	5.8µM*	?
- CC1(C)C2CCC1(C)C(NC(=O)COC(=O)c1ccc(S(C)(=O)=O)c([N+](=O)[O-])c1)C2 (centres undefined)
    /	-30.8%	/	/
- O=C(O)c1cc(O)c2c(c1)[C@H]([C@H]1c3cc(C(=O)O)cc(O)c3C(=O)c3c(O[C@@H]4O[C@H](CO)[C@@H](O)[C@H](O)[C@H]4O)cccc31)c1cccc(OC3O[C@H](CO)[C@@H](O)[C@H](O)[C@H]3O)c1C2=O (some centres undefined)
    ?	-55.2%	18.4µM*	?
- COc1ccc(CCNS(=O)(=O)c2cc3c4c(c2)C(C)C(=O)N4CCC3)cc1OC (centres undefined)
    -6.6%	23.0%	16.4µM*	-3.7%
- CC(=O)Nc1cccc(S(C)(=O)=O)c1
    20µM*	-21.1%	-23.0%	-1.4%
- O=c1cc(-c2ccccc2)[nH]n1-c1ccccc1
    -1.5%	-18.4%	10.5%	2.9%
- CC(C)(C)c1cc(=O)n(-c2ccccc2)[nH]1
    -3.5%	?	11.0%	46.1µM*
- CCc1ccc(-c2nc3c(=O)n(C)c(=O)nc-3n(CC)n2)cc1
    /	-0.1%	/	/
- CC(C)N(CCC(=O)c1ccc2ccccc2c1)Cc1ccccc1
    -7.6%	0.67µM*	8.2%	-2.5%
- CC(=O)N1CCN(c2ccc(NCc3ccc(-c4cccc(Cl)c4)o3)cc2)CC1
    /	?	11.6µM*	?
- CC(=O)N1CCN(c2ccc(NCc3ccco3)cc2)CC1
    /	-13.4%	11.2%	0.9%
- CCc1cc2c(cc3c(=O)n(CCCC(=O)NCc4cccc(Br)c4)ncn32)s1
    -3.5%	-16.9%	/	/
- NC(=S)NN=C1c2ccccc2-c2c(F)c(F)c(F)c(F)c21
    /	?	1.5%	73.1µM*
- N#Cc1cccc2c1-c1ccccc1/C2=N/NC(N)=S
    16.2%	-19.3%	-8.0%	1.1%
- COc1ccccc1C1CC(c2ccco2)=NN1c1ccccc1 (centres undefined)
    8.6%	-20.6%	16.4µM*	?
- COc1ccc(CC(=O)NNc2ncnc3c2cnn3-c2ccc(C)cc2)cc1
    -4.0%	3.0%	14.6µM*	-7.1%
- COc1ccc(NC(=O)C2=NN(c3ccccc3)C(=O)CC2)cn1
    ?	-13.8%	0.1%	51.7µM*
- Nc1c(S(=O)(=O)O)cc(Nc2ccc(Nc3nc(Cl)nc(Nc4ccc(S(=O)(=O)O)cc4)n3)c(S(=O)(=O)O)c2)c2c1C(=O)c1ccccc1C2=O
    /	18.9µM*	/	/
- CC[n+]1ccccc1/C=C/c1ccc(N(C)C)cc1
    79.0%	-10.3%	?	8.2µM*
- CCCCC/C=C\C/C=C\CCCCCCCC(=O)O[C@@H](CO)COC(=O)CCCCCCCCCCCCCCCCC
    /	2.67µM*	/	/
- O=c1cc(-c2ccc(O)cc2)oc2cccc(O)c12
    /	2.12µM*	/	/
- CCOCCCNC(=O)/C(C#N)=C/c1cc(C)c(O)c(C)c1
    8.4%	-20.6%	25.9µM*	?
- Cc1cc(/C=C(\C#N)C(=O)NCc2ccccc2)cc(C)c1O
    -1.5%	5.0%	6.51µM*	?
- COc1cc(/C=C(/C#N)C(=O)NCc2ccccc2)cc(OC)c1OC
    -11.1%	-2.6%	6.1%	-0.4%
- CCOCCCNC(=O)/C(C#N)=C/c1cc(OC)c(O)c([N+](=O)[O-])c1
    0.7%	10.9%	11.8%	-1.6%
- Nc1ccc2nc(-c3ccc(-c4nc5ccc(N)cc5[nH]4)cc3)[nH]c2c1
    6.8%	?	?	?
- Nc1ccc(-c2nc3ccc(-c4nc5ccc(N)cc5[nH]4)cc3[nH]2)cc1
    /	26.7µM*	/	/
- N[C@H](C(=O)O)[C@H](Cc1ccccc1)C(=O)O
    /	3.0%[56.9 µM]	/	/
- CSc1ccc2nnc(-c3ccc(C)cc3)n2n1
    /	-4.5%	/	/

Four entries from above, as labelled records:
> COc1cc(/C=C(/C#N)C(=O)NCc2ccccc2)cc(OC)c1OC
  ERG Ets-DNA blk = -11.1% | RGS4 inhibitor = -2.6% | Rango dissoc inh = 6.1% | Rango-impB inh = -0.4%

> CSc1ccc2nnc(-c3ccc(C)cc3)n2n1
  ERG Ets-DNA blk = / | RGS4 inhibitor = -4.5% | Rango dissoc inh = / | Rango-impB inh = /

> CCCCC/C=C\C/C=C\CCCCCCCC(=O)O[C@@H](CO)COC(=O)CCCCCCCCCCCCCCCCC
  ERG Ets-DNA blk = / | RGS4 inhibitor = 2.67µM* | Rango dissoc inh = / | Rango-impB inh = /

> CCOCCCNC(=O)/C(C#N)=C/c1cc(OC)c(O)c([N+](=O)[O-])c1
  ERG Ets-DNA blk = 0.7% | RGS4 inhibitor = 10.9% | Rango dissoc inh = 11.8% | Rango-impB inh = -1.6%
